For one substance, Km results are on record in paper PMC6589827 (Biochemistry, 2019).

For this series, the system named is reduced nicotinamide adenine dinucleotide phosphate. Description: purified protein, by the assay type. As to conditions: pH 7.0; 30.0 °C; varied: cofactor.

Turning to EcDHFR (Escherichia coli K-12), the Michaelis constant (Km) (as a rule, the concentration of substrate that gives half-maximal velocity) was 5.2 µM.
